Values quoted from earlier work in patent US6335316B1, “Method for administering acylated insulin” (Eli Lilly and Company, priority 1997, dated 2002).

**Q.** What does the source list for insulin?
**A.** bioavailability relative to subcutaneous (1 μm MMAD insulin aerosols): 100%; bioavailability relative to subcutaneous administration (inhalation of 4 μm MMAD insulin aerosols): 38%
